The results in this text go back to patent US10183913B2, “Pyrazole compound” (Sumitomo Dainippon Pharma Co., Ltd., priority 2010, dated 2019).

Sequences of proteins named here, by UniProt entry; tags and fusion partners are left off. A change or cut given only in a name is not applied to a line headed by its entry.
UniProt P28335: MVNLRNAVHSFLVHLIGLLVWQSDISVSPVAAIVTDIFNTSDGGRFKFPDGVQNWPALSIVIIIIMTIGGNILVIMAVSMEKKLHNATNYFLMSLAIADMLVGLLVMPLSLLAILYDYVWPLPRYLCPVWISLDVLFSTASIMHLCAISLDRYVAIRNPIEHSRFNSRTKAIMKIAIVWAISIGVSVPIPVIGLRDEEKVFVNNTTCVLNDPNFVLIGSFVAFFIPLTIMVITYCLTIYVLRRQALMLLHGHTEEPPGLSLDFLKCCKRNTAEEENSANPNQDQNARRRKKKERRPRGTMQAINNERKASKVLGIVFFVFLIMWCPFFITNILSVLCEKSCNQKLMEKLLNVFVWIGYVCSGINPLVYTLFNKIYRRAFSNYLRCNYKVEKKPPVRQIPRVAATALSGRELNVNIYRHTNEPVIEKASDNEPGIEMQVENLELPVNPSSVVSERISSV

For experiment [1], the target named is T1, human serotonin 2C receptor (h-5-HT2C) (Homo sapiens (Human), UniProt P28335). The experiment is described as follows: 5-HT2C receptor agonistic action assay (FLIPR Calcium 4 Assay kit, h-5-HT2C/CHO cells). The class given is cell-based. The note with it: test material 10 μmol/L; 100% = 10 μmol/L 5-HT, −100% = 10 μmol/L SB206553; below 0% = inverse agonistic action. The protocol:
3-1. The Cells and Inoculation Thereof
In the experiment, human serotonin 2C receptor (h-5-HT2C) was expressed in CHO cells (h-5-HT2C/CHO). The cells were incubated with UltraCHO Lipuid (trademark) (manufactured by BioWhitakker) containing 1% FBS, 400 μg/mL Geneticin, 100 U/mL penicillin—100 μg/mL streptomycin (all manufactured by Sigma Aldrich) and 250 μg/mL Zeosin (manufactured by InvivoGen) in an incubator containing 5% CO2. […]
The 5-HT2C receptor agonistic action was evaluated with FLIPR Calcium 4 Assay kit (manufactured by Molecular Devices). […] Then, the cells were set in FLIPR TETRA (trademark) (manufactured by Molecular Devices), to the cells was added the test material diluted with HHBP buffer, 2.5 mmol/L Probenecid (manufactured by Sigma) (concentration after dilution: 10 μmol/L) at an amount of 20 μL/well, and the fluorescence was measured. Then, in order to evaluate the antagonistic action of the test material, 20 μL/well of 5-HT solution (manufactured by Sigma, final concentration: 0.1 nmol/L) was further added to the cells, and the fluorescence was measured.
The 5-HT2C receptor agonistic action of each test material was calculated as a rate of fluorescence enhancement wherein 100% was defined as a value when the cells were given 10 μmol/L 5-HT. […]

Experiment [2] concerns the target T1, human serotonin 2C receptor (h-5-HT2C). The experiment is described as follows: [3H] mesulergine binding assay to evaluate affinity for human 5-HT2C receptor. The conditions noted are these: h-5-HT2C/CHO membrane preparation, read-out: Test Ex. 2: 5-HT2C receptor binding inhibition constant Ki. The protocol:
Mesulergine Binding Assay to Evaluate Affinity for Human 5-HT2C Receptor
(§1) Preparation of the Cells and Membrane Preparations
In the experiment, human serotonin 2C receptor (h-5-HT2C) was expressed in CHO cells (h-5-HT2C/CHO). The cells were incubated with UltraCHO Lipuid (trademark) (manufactured by BioWhitakker) containing 1% FBS, 400 μg/mL Geneticin, 100 U/mL penicillin—100 μg/mL streptomycin (all manufactured by Sigma Aldrich) and 250 μg/mL Zeosin (manufactured by InvivoGen) in an incubator containing 5% CO2; detached and collected using 50 mmol/L Tris-HCl (pH=7.4); homogenized with a homogenizer manufactured by Teflon (trademark); and then centrifuged (48,000×g, 25 min, 4° C.). […]
A solution of 200 μL in total was prepared by mixing 50 μL of [^3H] mesulergine (manufactured by GE Healthcare) diluted with 50 mmol/L Tris-HCl (pH=7.4) (final concentration: about 2 nmol/L), 149 μL of the h-5-HT2C/CHO membrane preparation (protein amount: 20 μg/well), and 1 μL of the test drug dissolved in dimethylsulfoxide. […] The glass fiber filter was washed twice with 250 μL of 50 mmol/L Tris-HCl (pH=7.4), placed in a plastic vial containing 4 mL of liquid scintillator (ACS-II, manufactured by Amersham) or Ecoscint A (manufactured by National Diagnostics), and the remaining radioactivity on the filter paper was assayed with a liquid scintillation counter. […]

For experiment [3], the target named is human serotonin transporter (h-SERT) (Homo sapiens (Human), UniProt P31645). The experiment is described as follows: [3H] citalopram binding assay to evaluate human serotonin reuptake inhibitory action (h-SERT binding assay). The conditions noted are these: read-out: Test Ex. 1: h-SERT binding inhibition constant Ki. On the procedure: Citalopram Binding Assay to Evaluate Human Serotonin Reuptake Inhibitory Action
as §1
In the experiment, human serotonin transporter (h-SERT) was expressed in CHO cells (h-SERT/CHO). The cells were incubated with F12 containing 10% FCS, 500 μg/mL Geneticin and 100 U/mL penicillin—100 μg/mL streptmycin (all manufactured by Sigma Aldrich) in an incubator containing 5% CO2; detached and collected using a SERT buffer [50 mmol/L Tris-HCl comprising 120 mmol/L NaCl and 5 mmol/L KCl (pH=7.4)]; homogenized with a homogenizer manufactured by Teflon (trademark); and then centrifuged (50,000×g, 30 min, 4° C.). The precipitate was suspended again in the appropriate amount of SERT buffer (to give a membrane preparation), and stored at −80° C. until used. […]
The [^3H] citalopram binding was measured according to the method disclosed in Owens M. J. et al., J. Pharm. […] The glass fiber filter was washed twice with […] of the SERT buffer, placed in a plastic vial containing 4 mL of liquid scintillator (ACS-II, manufactured by Amersham) or Ecoscint A (manufactured by National Diagnostics), and the remaining radioactivity on the filter paper was assayed with a liquid scintillation counter.

Take `CCCCn1nc(CNC)cc1OCc1cc(F)ccc1F` [Example 242]: the “Test Ex. 3: 5-HT2C receptor agonistic action” value in experiment [1] is listed as −95%. For the same compound, the results for the Ki in experiment [2] and in experiment [3] were 34 nM and 0.52 nM, respectively.
The corresponding values for `CNCc1cc(OCc2ccccc2)n(CC2CC3CCC2C3)n1` (stereo not drawn) [Example 115] are −103%, 5.4 nM and 1.5 nM.

The term Ki denotes a measure of affinity in units of concentration, obtained from inhibition or displacement.
